Assay results reported in patent EP4810040A2, “INHIBITORS OF APOL1 AND METHODS OF USING SAME” (priority 2020, dated 2022).

The chains behind the UniProt entries cited, without tags or fusion partners. Residues count along the entry.
UniProt O14791, 28-398 S342G/I384M limits assumed: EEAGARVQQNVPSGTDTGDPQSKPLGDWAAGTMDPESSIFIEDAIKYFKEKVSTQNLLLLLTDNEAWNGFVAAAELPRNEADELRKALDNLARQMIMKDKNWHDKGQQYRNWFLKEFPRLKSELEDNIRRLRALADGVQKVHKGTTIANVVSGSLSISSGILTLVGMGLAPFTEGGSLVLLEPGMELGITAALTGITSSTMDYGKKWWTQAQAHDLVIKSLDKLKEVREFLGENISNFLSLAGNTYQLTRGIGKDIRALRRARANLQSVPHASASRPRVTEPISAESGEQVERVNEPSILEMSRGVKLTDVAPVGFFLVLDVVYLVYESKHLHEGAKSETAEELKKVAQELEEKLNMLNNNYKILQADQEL

Molecular target: APOL1 G1 (Homo sapiens, UniProt O14791, I384M/S342G)
Test: MultiTox-Fluor Multiplex Cytotoxicity Assay, tet-inducible APOL1 G1 T-REx-HEK293 cells
Type: cell-based

C[C@@H](CO)CCn1cc([C@@H]2C[C@]3(C[C@H](C)N2)OCC(F)(F)c2cc(Cl)sc23)nn1
IC90 (read-out: Multi-Tox Assay IC90, APOL1 variant (G0/G1/G2) of the HEK293 cells not given, tested form: parent or trifluoroacetate salt (not spe)): < 50 nM
IC50 (read-out: Multi-Tox Assay IP50, IP50 = IC50 for cell proliferation, APOL1 variant not given, tested form: parent or trifluoroacetate salt (not spe)): < 50 nM
